## AlphaSeq binding of Ab-14 light chain variants to a spike HR2 peptide

From the AlphaSeq antibody data of Li et al. 2023 (doi:10.1038/s41467-023-39022-2), copy in the FLAb collection.

Target peptide (SARS-CoV-2 spike, HR2 region): PDVDLGDISGINAS

Ab-14 is the parent antibody, in scFv form: VH, then the linker GGGGSGGGGSGGGGS, then VL. The heavy chain is unchanged in all variants.
VH: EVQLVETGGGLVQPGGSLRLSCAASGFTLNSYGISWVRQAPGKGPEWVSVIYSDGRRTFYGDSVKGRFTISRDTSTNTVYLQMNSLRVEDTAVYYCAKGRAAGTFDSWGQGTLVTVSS
VL: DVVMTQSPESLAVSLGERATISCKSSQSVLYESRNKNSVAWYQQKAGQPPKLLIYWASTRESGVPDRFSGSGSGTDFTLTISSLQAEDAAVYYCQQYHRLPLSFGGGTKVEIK

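Phage display of a naive human antibody library on the peptide gave the parent. Designed CDR sequences, proposed from the first random library and measured here. Their group label is 14L_En_Gen (En: ensemble of fine-tuned language models; Gen: genetic algorithm). AlphaSeq pools MATa yeast showing the antibodies with MATalpha yeast showing the peptide. After mating in shaken culture at 30 °C for 16 h, diploids were selected and their barcode pairs sequenced. The ratio of observed to expected reads was calibrated, replicate by replicate, on BCL2-family standards whose Kd was known from biolayer interferometry. The assay was run in six technical replicates.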

Each variant is given by its three light chain CDRs, as the data file delimits them; those of the parent are KSSQSVLYESRNKNSVA, WASTRES, QQYHRLPLS. The read-out is the apparent dissociation constant on a log10 scale (nM): the lower, the stronger. Replicates are averaged; those with no signal do not enter the mean. "ND" means that the variant was in the library but no mating with the target was seen in that replicate; the authors take this as a sign of poor binding, and no number exists. Nonspecific signal, from three strains lacking the peptide, appeared in 4% of pairings of all light chain designs, centred on 2.64 (5% of these signals below 1.59); values are not corrected for it. For each scFv, signals with the empty controls are counted beside the result, with their mean in brackets.

| # | CDR-L1 | CDR-L2 | CDR-L3 | replicates, log10 nM | mean log10 Kd (nM) | empty controls |
|---|---|---|---|---|---|---|
| 1 | KVSEFMRGLMKKQDSIA | DNVTRNS | QQYDRLPLS | 1.24 / 1.53 / 1.32 / 1.23 / 1.34 / 1.47 | 1.35 | 3 of 18 (2.75) |
| 2 | KISQMQRVGSTHTNSIA | EEATRAK | QQYHRLPLF | 1.65 / 1.68 / 1.00 / 0.89 / 1.56 / 1.86 | 1.44 | 0 of 18 |
| 3 | MMSQVTGQGTRHRNNVA | QTSEREI | QQYDRLPLI | 0.24 / 0.31 / 0.09 / 0.14 / 0.23 / 0.32 | 0.22 | 1 of 18 (2.21) |
| 4 | MVTQMAMSGMTNKRSVA | NAETREH | QQYHRLPLI | 1.56 / 1.48 / 1.26 / 1.61 / 1.33 / 1.47 | 1.45 | 3 of 18 (2.88) |
| 5 | MMSQVTGMESKHRNNVA | QTSTREA | QQYDRLPLI | 0.57 / 0.31 / -0.10 / 0.33 / 0.45 / 0.35 | 0.32 | 0 of 18 |
| 6 | KFSQMANTFSVSMNAVA | EMSTREN | QQYNRLPLA | ND / 0.37 / -0.02 / ND / 0.12 / ND | 0.16 | 0 of 18 |
| 7 | IVSQLMLVGMHAKNSIA | EASSRLN | QQYDRLPLI | ND / ND / ND / ND / ND / ND | ND | 0 of 18 |
| 8 | HMSMITLQGMRARNSVA | QMTTREN | QQYDHLPLS | 1.86 / 0.37 / 0.91 / ND / 0.61 / 1.78 | 1.11 | 0 of 18 |
| 9 | TISQLMNMGQFAINSVA | QASERSN | QQYDRLPLI | 0.88 / 0.70 / 0.21 / 0.66 / 0.94 / 0.93 | 0.72 | 0 of 18 |
| 10 | KIGMVLNQLLHQKNNVA | DLVERED | QQYFRLPLS | 0.76 / 0.36 / -0.06 / 0.00 / 0.01 / 0.25 | 0.22 | 0 of 18 |
| 11 | HMSMLTLQGMRHKNSVA | QMTTREN | QQYDHLPLA | 1.58 / 1.69 / 1.35 / 1.29 / 1.13 / 2.08 | 1.52 | 0 of 18 |
| 12 | MLSEVLHMLGVAKNSIA | DLVLRAN | QQYHRLPLS | 1.32 / 1.54 / 0.82 / 1.38 / 1.72 / 2.15 | 1.49 | 0 of 18 |
| 13 | MISQIYNMGQFAINSVA | QASERSN | QQYDRLPLM | 1.95 / 1.29 / 1.37 / 2.36 / 0.85 / 1.46 | 1.55 | 0 of 18 |
| 14 | MISQLYNMGQFAINSVA | QASIRNA | QQYDRLPLI | ND / 1.95 / 1.84 / 1.07 / ND / 1.29 | 1.54 | 1 of 18 (1.05) |
| 15 | KISMMINMTFEHSNNVA | EMATREK | QQYNRLPLS | 0.95 / 0.51 / 0.42 / 0.60 / 0.63 / 1.29 | 0.73 | 0 of 18 |
| 16 | KITTTMRFEQKQKNNIA | EVTTRSK | QQYYRLPLA | 0.70 / 1.58 / 1.04 / 0.88 / 0.96 / 1.44 | 1.10 | 1 of 18 (2.45) |
| 17 | MVNGIMDHLSKNTNNVA | ETTTRNS | QQYDRLPLS | 0.93 / 1.40 / 1.69 / 2.74 / 0.56 / 1.29 | 1.43 | 1 of 18 (1.62) |
| 18 | MLSEVLHMLGVAKNSIA | DLVLRAN | QQYHRLPLA | ND / ND / ND / ND / ND / ND | ND | 0 of 18 |
| 19 | KVSFFNEQVTKKGSNVA | DNETREA | QQYFRLPLS | 0.26 / -0.01 / -0.07 / -0.25 / -0.04 / 0.30 | 0.03 | 2 of 18 (1.94) |
| 20 | HMSMLTLQGLRHRNSVA | QMTTRVN | QQYDRLPLS | ND / 2.49 / 1.80 / 1.56 / 3.04 / 2.57 | 2.29 | 0 of 18 |
| 21 | HMSAVTMMGMRHRNSVA | QMTMREN | QQYDRLPLA | 1.71 / 1.56 / 0.63 / 1.31 / 1.59 / 0.90 | 1.28 | 2 of 18 (2.28) |
| 22 | TISQMPSLFSQSINNVA | EVSTREP | QQYDRLPLI | 0.24 / 1.48 / 1.23 / 0.46 / 1.42 / 2.20 | 1.17 | 0 of 18 |
| 23 | KLQSVTGTEKVHGNNVA | EMETRER | QQYNRLPLS | 0.38 / 0.28 / 0.21 / 0.06 / 0.08 / 0.35 | 0.23 | 1 of 18 (2.01) |
| 24 | IVSQLMLWGWHAKNSIA | EAQTRVN | QQYDRLPLM | ND / ND / ND / ND / ND / ND | ND | 0 of 18 |
| 25 | HLGLATMLEEHVRNSVA | NNSTREQ | QQYDRLPLS | 2.86 / 1.47 / 0.84 / 2.06 / 1.96 / 1.49 | 1.78 | 1 of 18 (3.32) |
| 26 | IISQLMIWGYHAKNSIA | EAQTRDN | QQYDRLPLF | 0.28 / 0.14 / 0.21 / 0.13 / -0.11 / 0.04 | 0.11 | 0 of 18 |
| 27 | KISMMINMTFEESNNVA | EMVTREK | QQYNRLPLS | ND / ND / ND / ND / ND / ND | ND | 1 of 18 (2.40) |
| 28 | TISQMTSLFSQSINNVA | EVSMREL | QQYDRLPLA | 0.86 / 0.63 / 0.85 / 0.95 / 1.13 / 1.85 | 1.05 | 1 of 18 (1.50) |
| 29 | MISQLWNMGSFAINSVA | QASLRNE | QQYDRLPLT | 1.37 / ND / 1.94 / ND / ND / 1.75 | 1.69 | 1 of 18 (1.42) |
| 30 | MLSQMWAIGQKVSNSVA | QASQRFN | QQYDRLPLE | 0.87 / 1.16 / 0.78 / 0.72 / 0.96 / 0.87 | 0.89 | 0 of 18 |
| 31 | KVSEFMRGLMKMKDSIA | DNDTRNS | QQYDRLPLS | 1.28 / 1.15 / 1.66 / 0.36 / 0.95 / 0.68 | 1.01 | 0 of 18 |
| 32 | KLSGLMQSSKFAKNNVA | ENNTREK | QQYERLPLS | 1.50 / 1.37 / 1.30 / 1.67 / 1.42 / 1.29 | 1.42 | 2 of 18 (1.81) |
| 33 | KLYDMAAVTMQNIRNVA | DNSTREA | QQYHRLPLS | 0.82 / 1.22 / 0.52 / 0.79 / 0.86 / 1.09 | 0.89 | 2 of 18 (2.91) |
| 34 | TLYGLMLSMSKNKNSVA | EMTTREK | QQYDRLPLI | ND / ND / 2.62 / 2.21 / ND / 2.71 | 2.51 | 1 of 18 (2.22) |
| 35 | KVSHVQDVHTRNVNSVA | QMDTREE | QDYNRLPLS | 1.75 / 0.94 / 1.05 / 0.52 / 0.94 / 1.72 | 1.15 | 0 of 18 |
| 36 | MVNGIMDHLSKQTNNVA | ETTTRES | QQYERLPLS | 0.28 / 0.62 / 0.33 / 0.26 / 0.44 / 0.63 | 0.43 | 1 of 18 (2.15) |
| 37 | MISQLYNMGSFAINSVA | QGQTRNE | QQYDRLPLM | 2.31 / 1.73 / 1.59 / 1.68 / ND / 3.65 | 2.19 | 0 of 18 |
| 38 | KISQMVKVGATHSNSIA | EMVTRAN | QQYHRLPLA | 1.24 / 0.54 / 0.45 / 0.87 / 0.54 / 0.67 | 0.72 | 1 of 18 (3.24) |
| 39 | KIGATLNMMMHKKNNVA | DLVTREN | QQYHRLPLS | 0.97 / 0.84 / 0.58 / 0.73 / 1.26 / 0.87 | 0.87 | 0 of 18 |
| 40 | TISQMTSLFSQTINNVA | EVSTREI | QQYDRLPLT | 2.58 / 1.93 / 3.53 / 2.26 / 2.44 / 2.08 | 2.47 | 0 of 18 |
| 41 | HITMGMYVMGRHHSSIA | QAETRMQ | QQYDRLPLI | 1.26 / 1.50 / 1.17 / 1.11 / 1.35 / 1.23 | 1.27 | 2 of 18 (4.34) |
| 42 | KISQMVKVGSTHSNSIA | EEETRAK | QQYHRLPLA | 0.38 / 0.51 / 1.14 / 0.27 / 0.30 / 0.08 | 0.45 | 0 of 18 |
| 43 | KLGATMNTEMTKRNNVA | DLVMREN | QQYFRLPLS | 0.31 / 0.28 / 0.10 / 0.32 / -0.04 / 0.30 | 0.21 | 2 of 18 (2.33) |
| 44 | KITAIMRFEQKNSNNIA | EVTTRSK | QQYYRLPLS | 1.04 / 0.21 / 0.45 / 0.40 / 0.47 / 0.74 | 0.55 | 0 of 18 |
| 45 | KLSMITGHMSMSRNNVA | EMVTREN | QQYDRLPLA | 0.47 / 0.28 / 0.30 / 0.22 / 0.05 / 0.38 | 0.28 | 0 of 18 |
| 46 | HVSMLTLGGLRNRNSVA | QMTTREN | QQYDRLPLA | 1.15 / 1.71 / 0.90 / 1.67 / 1.08 / 0.74 | 1.21 | 1 of 18 (1.89) |
| 47 | KIGMTLNQLQEKKNNVA | DLVTREN | QQYHRLPLS | 0.29 / 0.30 / 0.00 / 0.22 / -0.06 / 0.35 | 0.18 | 2 of 18 (3.74) |
| 48 | MVTQMAMSGMTNKRSVA | NAETRED | QQYFRLPLI | 0.44 / 0.05 / 0.18 / -0.17 / 0.20 / 0.21 | 0.15 | 2 of 18 (2.41) |
| 49 | HMSMLTLMGSRNRNSVA | QMTTREN | QQYDRLPLI | 1.66 / 1.11 / 0.95 / 1.34 / 1.26 / 1.41 | 1.29 | 2 of 18 (2.94) |
| 50 | MISNVMNTLTRQGNNVA | DLAEREE | QQYFRLPLS | 1.02 / 0.89 / 0.88 / 0.38 / 0.61 / 0.60 | 0.73 | 0 of 18 |
| 51 | HMSMLTLQGMRMRNSVA | QMTTREN | QQYDRLPLA | 1.45 / 0.93 / 1.53 / 0.81 / 1.36 / 2.27 | 1.39 | 0 of 18 |
| 52 | KIGATLNTLYEKANNVA | DLVEREN | QQYFRLPLS | 0.28 / 0.03 / 0.56 / -0.38 / -0.01 / -0.01 | 0.08 | 0 of 18 |

Excerpt, the final 3 entries:

| CDR-L1 | CDR-L2 | CDR-L3 | replicates, log10 nM | mean log10 Kd (nM) | empty controls |
|---|---|---|---|---|---|
| MISNVMNTLTRQGNNVA | DLAEREE | QQYFRLPLS | 1.02 / 0.89 / 0.88 / 0.38 / 0.61 / 0.60 | 0.73 | 0 of 18 |
| HMSMLTLQGMRMRNSVA | QMTTREN | QQYDRLPLA | 1.45 / 0.93 / 1.53 / 0.81 / 1.36 / 2.27 | 1.39 | 0 of 18 |
| KIGATLNTLYEKANNVA | DLVEREN | QQYFRLPLS | 0.28 / 0.03 / 0.56 / -0.38 / -0.01 / -0.01 | 0.08 | 0 of 18 |

The authors' rule: three or more of the six replicates give a measured affinity, fewer mean a poor binder. The parent sequence was in this pool as ten entries: three were never detected, three once, and four in most replicates, with averages from 0.34 to 2.37. A sequence measured in both rounds can read differently, since the two assays cover different ranges.